Values quoted from earlier work as cited in patent US20220304945A1, “METHODS OF TREATING METABOLIC SYNDROME RELATED CONDITIONS USING RETINOIC ACID RECEPTOR AGONISTS” (Cornell University, priority 2014, published 2022).

Sequences of proteins named here, by UniProt entry; tags and fusion partners are left off. Residues count along the entry.
UniProt P10826, 1-448 isoform 2: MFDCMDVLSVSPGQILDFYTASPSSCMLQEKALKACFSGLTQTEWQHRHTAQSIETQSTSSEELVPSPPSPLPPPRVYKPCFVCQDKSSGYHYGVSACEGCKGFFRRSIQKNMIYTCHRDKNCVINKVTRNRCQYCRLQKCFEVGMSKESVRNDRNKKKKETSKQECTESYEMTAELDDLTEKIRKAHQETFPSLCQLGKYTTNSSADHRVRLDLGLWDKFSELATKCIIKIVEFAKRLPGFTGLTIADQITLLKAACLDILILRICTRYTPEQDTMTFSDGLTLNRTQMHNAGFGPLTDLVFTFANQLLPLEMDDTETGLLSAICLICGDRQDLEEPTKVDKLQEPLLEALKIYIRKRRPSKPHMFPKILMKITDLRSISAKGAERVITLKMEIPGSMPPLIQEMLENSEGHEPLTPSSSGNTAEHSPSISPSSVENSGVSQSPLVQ

Biological target: RARβ2 (Homo sapiens, UniProt P10826)
Details: from Table 1 and Table 2 of WO2007/009083; cited from earlier work

Compound	pEC50	% Eff. [%]
CCCCCCCCc1ccc(-c2ccc(C(=O)OCCc3ccccn3)c(F)c2)cc1	7.79	–
CCCCCCCc1ccc(-c2ccc(C(=O)OCCc3ccccn3)c(F)c2)cc1	7.71	95
CCCCCCOc1ccc(-c2ccc(C(=O)OCc3ccco3)cc2)cc1	6.75	25
CCCCCCCOc1ccc(-c2ccc(C(=O)OCCc3ccccn3)cc2)cc1	7.04	62
CCCCCCCCc1ccc(-c2ccc(C(=O)OCCC#N)cc2)cc1	6.95	71
CCCCCCCCc1ccc(-c2ccc(C(=O)OCc3ccco3)cc2)cc1	6.56	49
CCCCCCCCOc1ccc(-c2ccc(C(=O)OCCC#N)cc2)cc1	6.71	46
CCCCCCCCOc1ccc(-c2ccc(C(=O)OCc3ccco3)cc2)cc1	6.67	67
CCCCCCCc1ccc(-c2ccc(C(=O)OCCC#N)cc2)cc1	7.28	36
